Measurements reported in patent publication US8426353B2, “Process for preparing polyurea microcapsules” (Firmenich SA, priority 2008, dated 2013).

Assay: LogP of the perfume ingredients
Conditions: ingredients of the perfume of Example 9 (Table 9)

LogP: 4.42
SMILES: CC(=O)OC1CCCCC1C(C)(C)C (stereo not shown) [Verdox ®, 2-Tert-butyl-1-cyclohexyl acetate]
